In patent US20230048200A1:

Molecular target: type I collagen (Advanced BioMatrix) coated on plates and pretreated with collagenase
Assay: cell-based or functional assay

collagen parallel alignment (digital analysis of DIC micrographs): 3 fold
Substance: Compound 3, a (Pro-Pro-Gly)7 CMP (peptide)
